Data taken from US7498406B2, “Substantially cell membrane impermeable compound and use thereof” (priority 1999, dated 2009).
pIC50: −log10 of the molar value.

Tested on: BAE cells
Conditions: read-out: IC50 for viability; 24 hours, complete medium

Substance	pIC50
a mixture of 4-(N-(6-(fluorescein-5-carboxamido)hexanoyl)amino)phenylarsenoxide and 4-(N-(6-(fluorescein-6-carboxamido)hexanoyl)amino)phenylarsenoxide	< 3.70
phenylarsenoxide	> 7.00
